Only a part is listed here, and it is no random draw. Inconclusive results are not listed. Active and inactive are the calls of the source. Calls follow the shape of the dose curve; as a rule, active = well fitted activation curve with a large enough effect; inconclusive = small, poorly fitted or top-dose-only effect; inactive = no such curve, though single readings can be large or run the other way.
Test: qHTS Assay for Rab9 Promoter Activators; also: % of control where 0% means no effect; nearly all actives have a fitted effect of over 60% in size
Conditions: Huh7 Rab9 promoter-luciferase reporter, luminescence, 24 h; at 9.22 µM (top of the series)

SMILES | activation, negative = inhibition
CP(=O)(Nc1ccccc1)Oc1ccc(F)cc1 (centres undefined) | inactive: -1.74%
CCCCCOc1ccc(NP(C)(=O)Oc2ccc(Cl)cc2Cl)cc1 (centres undefined) | inactive: 9.02%
CCN(CC)CCCOC(=O)C(O)(c1ccccc1)C1CCCCC1 (centres undefined) | inactive: -13.5%
CCOC(=O)c1ccc(NP(C)(=O)Oc2ccc(F)cc2)cc1 (centres undefined) | inactive: -12%
COc1ccc(OP(C)(=O)Nc2ccc(SC(F)(F)F)cc2)cc1 (centres undefined) | inactive: -0.733%
O=C(OCCN1CCN(CCOCc2ccccc2)CC1)C(O)(c1ccccc1)c1ccccc1 | inactive: 0.227%
CP(=O)(Nc1ccccc1F)Oc1ccccc1 (centres undefined) | inactive: 6.98%
CC(C)c1ccc(OP(C)(=O)Nc2ccc(SC(F)(F)F)cc2)cc1 (centres undefined) | inactive: -1.49%
Cc1ccccc1NP(C)(=O)Nc1ccccc1C | inactive: -10.1%
CP(=O)(Nc1ccc2c(c1)OCCO2)Oc1ccccc1 (centres undefined) | inactive: -3.96%
CCOP(C)(=S)SCC(=O)NC(C)(CC)C(=O)O (centres undefined) | inactive: -2.05%
CP(=O)(Nc1ccc(SC(F)(F)F)cc1)Oc1ccc(F)cc1 (centres undefined) | inactive: 0.216%
O=[N+]([O-])c1ccc(OP2(=O)COCCO2)cc1 (centres undefined) | inactive: 0.414%
Cc1cc(-c2cccc3ccccc23)c(C)cn1.O=[N+]([O-])c1cc([N+](=O)[O-])c(O)c([N+](=O)[O-])c1 | inactive: -8.05%
CN(C)CCOC(=O)C(O)(c1ccccc1)C1CCCCC1 (centres undefined) | inactive: 0.702%
COc1ccc(NP(C)(=O)Oc2ccccc2OC)cc1 (centres undefined) | inactive: 3.18%
COc1ccc(OP(C)(=O)Nc2cccc(Br)c2)cc1 (centres undefined) | inactive: 11.5%
CCOC(=O)c1ccc(NP(C)(=O)Oc2ccc(Cl)cc2)cc1 (centres undefined) | inactive: -5.13%
CP(=O)(OC12CC3CC(CC(C3)C1)C2)OC12CC3CC(CC(C3)C1)C2 | inactive: -3.4%
CN(C)C(=O)c1c([N+](=O)[O-])cc([N+](=O)[O-])cc1[N+](=O)[O-] | inactive: 18.9%
CC(C)(C)c1ccc(OP(C)(=O)O)cc1 | inactive: 17.8%
COc1ccccc1OP(C)(=O)Nc1ccccc1Br (centres undefined) | inactive: -0.361%
CP(=O)(Nc1ccc(Cl)cc1)Oc1ccc(F)cc1 (centres undefined) | inactive: -0.112%
COc1ccccc1OP(C)(=O)Nc1c(C)n(C)n(-c2ccccc2)c1=O (centres undefined) | inactive: 2.39%
O=C(OCCCN1CCCC1)C(O)(c1ccccc1)C1CCCCC1 (centres undefined) | inactive: -5.29%
CP(=O)(Oc1ccccc1)N1CCOC1=O (centres undefined) | inactive: -6.64%
CCc1ccc(OP(C)(=O)Nc2cccnc2)cc1 (centres undefined) | inactive: 0.152%

SMILES | activation, negative = inhibition
CCN(CC)CC(O)COC(=O)C(O)(c1ccccc1)C1CCCCC1 (centres undefined) | inactive: -4.7%
COc1ccc(OP(C)(=O)Nc2ccc(Br)cc2)cc1 (centres undefined) | inactive: -5.74%
CP(=O)(Nc1ccccn1)Oc1ccccc1 (centres undefined) | inactive: -3.63%
COc1ccccc1OP(C)(=O)Nc1ccc(C)cc1C (centres undefined) | inactive: -0.0758%
CCc1ccc(OP(C)(=O)O)cc1 | inactive: -3.58%
O=[N+]([O-])c1cc([N+](=O)[O-])c(Nc2ccccn2)c([N+](=O)[O-])c1 | inactive: -47.3%
Cc1c(NP(C)(=O)Oc2ccc(C(C)C)cc2)c(=O)n(-c2ccccc2)n1C (centres undefined) | inactive: 0.82%
COc1ccc(OP(C)(=O)Nc2ccccn2)cc1 (centres undefined) | inactive: -4.16%
CN(C)CCOC(=O)C(O)(c1ccccc1)C1CCCC1 (centres undefined) | inactive: -3.27%
COc1ccccc1OP(C)(=O)Nc1ccc(Br)cc1 (centres undefined) | inactive: -2.49%
CP(=O)(OCCOc1ccccc1)OCCOc1ccccc1 | inactive: -25.4%
CP(=O)(Nc1ccc(Cl)cc1Cl)Oc1ccccc1 (centres undefined) | inactive: -1.03%
COc1ccccc1OP(C)(=O)Nc1ccc(C)c(C)c1 (centres undefined) | inactive: 1.11%
COc1ccc(OP(C)(=O)Nc2ccccc2Br)cc1 (centres undefined) | inactive: -2.08%
Cc1cc(C)cc(OP(C)(=O)Nc2cccc(C(F)(F)F)c2)c1 (centres undefined) | inactive: -4.69%
Cc1cc(C)cc(OP(C)(N)=O)c1 (centres undefined) | inactive: 3.89%
COc1ccccc1OP(C)(=O)Nc1cc(Cl)ccc1C (centres undefined) | inactive: -5.89%
COc1ccc(OP(C)(=O)Nc2cccc(F)c2)cc1 (centres undefined) | inactive: 3.26%
COc1ccccc1OP(C)(=O)Nc1ccc(C)cc1 (centres undefined) | inactive: -2.99%
Cc1ccc(NP(C)(=O)Oc2ccccc2)c(C)c1 (centres undefined) | inactive: 0.07%
CCOC(=O)c1ccc(NP(C)(=O)Oc2ccccc2)cc1 (centres undefined) | inactive: -0.461%
O=[N+]([O-])c1ccc2c(c1)C=Nc1ccccc1O2 | inactive: -5.53%
CC(C)(C)c1ccc(OP(C)(=O)Nc2ccc(SC(F)(F)F)cc2)cc1 (centres undefined) | inactive: -5.06%
Cc1cccc(C)c1OP(C)(N)=O (centres undefined) | inactive: -0.893%
O=[N+]([O-])c1cc([N+](=O)[O-])c(Nc2cccnc2)c([N+](=O)[O-])c1 | inactive: -2.67%
CCN(CC)CCCOC(=O)C(O)(c1ccccc1)c1ccccc1 | inactive: 3.7%
CCOC(=O)c1ccc(NP(C)(=O)Oc2ccc(OC)cc2)cc1 (centres undefined) | inactive: -0.869%

SMILES | activation, negative = inhibition
CCOP(C)(=S)SCC(=O)NC(C)C(=O)O (centres undefined) | inactive: -5.31%
CCc1ccc(OP(C)(=O)N2CCN(c3ccc([N+](=O)[O-])cc3)CC2)cc1 (centres undefined) | inactive: 0.342%
CP(=O)(NC(=O)Nc1ccccc1)Oc1ccccc1 (centres undefined) | inactive: -0.842%
Cc1cc(C)cc(OP(C)(=O)Nc2ccc(SC(F)(F)F)cc2)c1 (centres undefined) | inactive: -1.8%
Cc1cccc(C)c1OP(C)(=O)Nc1ccc(SC(F)(F)F)cc1 (centres undefined) | inactive: 0.169%
CP(=O)(Nc1ccc(SC(F)(F)F)cc1)Oc1ccc(Cl)cc1 (centres undefined) | inactive: -0.165%
CP(=O)(Oc1ccccc1)OC(c1ccccc1)C(F)(F)F (centres undefined) | inactive: 3.91%
CP(=O)(Nc1ccccc1Br)Oc1ccccc1 (centres undefined) | inactive: 1.2%
COc1ccccc1OP(C)(=O)Nc1ccccc1 (centres undefined) | inactive: -9.25%
CP(=S)(Nn1cnnc1)Oc1ccccc1 (centres undefined) | inactive: -0.641%
CP(=O)(Nc1ccc(SC(F)(F)F)cc1)Oc1ccccc1 (centres undefined) | inactive: -1.73%
CCCOc1ccc(NP(C)(=O)Oc2ccc(Cl)cc2)cc1 (centres undefined) | inactive: -8.1%
COc1ccccc1OP(C)(=O)Nc1c(C)cccc1C (centres undefined) | inactive: -1.48%
CN1CCCCC1COC(=O)C1(O)c2ccccc2CCc2ccccc21 (centres undefined) | inactive: 6.38%
O=[N+]([O-])c1cc([N+](=O)[O-])c(Nc2nnnn2CCO)c([N+](=O)[O-])c1 | inactive: -8.07%
CC1=C2N=C(C=C3N=C(C(C)=C4[N-][C@@](C)([C@@H]5N=C1[C@](C)(CCC(=O)NC[C@@H](C)OP(=O)([O-])O[C@H]1[C@@H](O)[C@@H](n6cnc7cc(C)c(C)cc76)O[C@@H]1CO)[C@H]5CC(N)=O)[C@@](C)(CC(N)=O)[C@@H]4CCC(N)=O)[C@@](C)(CC(N)=O)[C@@H]3CCC(N)=O)C(C)(C)[C@@H]2CCC(N)=O.[C-]#N.[Co+3] | inactive: -18%
Cc1nc2ccc3ccccc3c2s1.O=[N+]([O-])c1cc([N+](=O)[O-])c(O)c([N+](=O)[O-])c1 | inactive: 2.78%
O=[N+]([O-])c1cc([N+](=O)[O-])c(-n2nnc3ccccc32)c([N+](=O)[O-])c1 | inactive: 1.91%
Cc1ccc(C)c(NP(C)(=O)Oc2ccccc2)c1 (centres undefined) | inactive: -2.11%
CP(=O)(Nc1cccc(Br)c1)Oc1ccccc1 (centres undefined) | inactive: 2.7%
Cc1cc(C)cc(OP(C)(=O)Nc2ccccn2)c1 (centres undefined) | inactive: 0.476%
CCOC(=O)c1ccc(NP(C)(=O)Oc2cc(C)cc(C)c2)cc1 (centres undefined) | inactive: -0.387%
Cc1cc(C)cc(OP(C)(=O)Nc2ccc(C)cc2C)c1 (centres undefined) | inactive: -3.97%
COc1ccccc1OP(C)(=O)Nc1cccc(Br)c1 (centres undefined) | inactive: -2.47%
CC1=NCCc2c1[nH]c1ccccc21.O=[N+]([O-])c1cc([N+](=O)[O-])c(O)c([N+](=O)[O-])c1 | inactive: -0.719%
